Test results: PMC8452626

Molecular target: GST-tagged mDia2 FH1-FH2 formin construct (GST-mDia2-FF) (UniProt Q9Z207)
Experiment: pull-down; GST-mDia2-FF (0.5 uM dimer) incubated 1 h at RT with 5 uM Mox- or unoxidized actin and 15 uM profilin in LT-KMEH7 buffer (pH 7, 50 mM KCl, latrunculin A), then glutathione-Sepharose beads 2-2.5 h at 4 C; Coomassie-stained gels quantified; stoichiometries per 1 formin dimer after accounting for nonspecific binding (GST) and formin amounts

| Substance | stoichiometry N (actin per 1 formin dimer) | stoichiometry N (profilin per 1 formin dimer) |
| --- | --- | --- |
| Mox-actin-profilin complex (from UniProt P68135 1-377; P07737 1-140) | 0.62 | 0.58 |
| unoxidized actin-profilin complex (from UniProt P68135 1-377; P07737 1-140) | 0.81 | 1.03 |
